Results published in patent US8748423B2, “Compositions and methods for the prevention and treatment of cancer” (Kinex Pharmaceuticals, LLC, priority 2010, dated 2014).

Tests used:
Assay type in all cases: cell-based
Daoy = experiment: brain tumor cell line growth inhibition, Daoy; settings: Homo sapiens, desmoplastic cerebellar medulloblastoma
Description: (§1) These GI50s were determined using standard tumor growth inhibition assays.

U87 = experiment: brain tumor cell line growth inhibition, U87; settings: Homo sapiens, U-87 MG; U87, glioblastoma; astrocytoma
Description: as §1

SK-N-MC = experiment: brain tumor cell line growth inhibition, SK-N-MC; settings: Homo sapiens, neuroepithelioma
Description: as §1

SW1088 = experiment: brain tumor cell line growth inhibition, SW1088; settings: Homo sapiens; SW1088, astrocytoma
Description: as §1

## Cc1nc(Nc2ncc(C(=O)Nc3c(C)cccc3Cl)s2)cc(N2CCN(CCO)CC2)n1 [Dasatinib, reference compound]
Daoy
  IC50: 2930 nM
U87
  IC50: 1590 nM
SK-N-MC
  IC50: 5110 nM
SW1088
  IC50: 897 nM
